Laboratory results taken from US20240158446A1, “CYCLIC COMPOUND HAVING SELECTIVE INHIBITORY ACTION ON KRAS OVER HRAS AND NRAS” (CHUGAI SEIYAKU KABUSHIKI KAISHA, priority 2021, published 2024).

The chains behind the UniProt entries cited, without tags or fusion partners.
UniProt P01116, whole entry: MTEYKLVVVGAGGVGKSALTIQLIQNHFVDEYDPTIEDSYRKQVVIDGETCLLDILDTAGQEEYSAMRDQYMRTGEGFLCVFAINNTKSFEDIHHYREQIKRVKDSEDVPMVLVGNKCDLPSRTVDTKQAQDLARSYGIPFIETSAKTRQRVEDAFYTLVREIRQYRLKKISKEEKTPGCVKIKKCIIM
UniProt P01111, whole entry: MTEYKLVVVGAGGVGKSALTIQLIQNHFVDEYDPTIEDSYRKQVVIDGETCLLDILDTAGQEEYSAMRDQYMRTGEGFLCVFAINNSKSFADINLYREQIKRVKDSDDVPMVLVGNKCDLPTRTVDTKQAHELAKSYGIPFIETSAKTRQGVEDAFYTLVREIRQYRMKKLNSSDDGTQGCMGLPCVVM
UniProt P01112, whole entry: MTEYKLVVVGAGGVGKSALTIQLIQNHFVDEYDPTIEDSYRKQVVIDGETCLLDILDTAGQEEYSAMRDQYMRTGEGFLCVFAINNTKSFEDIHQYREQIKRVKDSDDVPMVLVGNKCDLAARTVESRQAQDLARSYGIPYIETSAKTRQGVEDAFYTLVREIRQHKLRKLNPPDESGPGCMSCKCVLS

What was measured:
[1] = test system: human lung cancer strain NCI-H441; experiment: NCI-H441 cell proliferation inhibitory activity (CellTiter-Glo); conditions: read-out: NCI-H441 IC50, 4 days;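 note: cell proliferation inhibition after four days measured by CellTiter-Glo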
[2] = target: GDP-bound KRAS wild-type protein (Homo sapiens, UniProt P01116); experiment: Binding to KRAS by surface plasmon resonance (SPR), Single Cycle Kinetics; conditions: read-out: KRAS KD
[3] = target: GDP-bound NRAS wild-type protein (Homo sapiens, UniProt P01111); experiment: Binding to NRAS by surface plasmon resonance (SPR), Single Cycle Kinetics; conditions: ratio of KD for GDP-bound NRAS wild-type protein to KD for KRAS
[4] = target: GDP-bound HRAS wild-type protein (Homo sapiens, UniProt P01112); experiment: Binding to HRAS by surface plasmon resonance (SPR), Single Cycle Kinetics; conditions: ratio of KD for GDP-bound HRAS wild-type protein to KD for KRAS

SMILES	IC50 [1] [nM]	Kd [2] [nM]	NRAS/KRAS (KD ratio) [3]	HRAS/KRAS (KD ratio) [4]
CC[C@H](C)[C@@H]1NC(=O)[C@H](CC(C)C)N(C)C(=O)C[C@@H](C(=O)N(C)C)N(C)C(=O)[C@H](C2CCCC2)N(C)C(=O)C2(CCC2)N(C)C(=O)[C@@H]2C[C@@H](C)CN2C(=O)[C@H](CCc2cc(F)c(C(F)(F)F)c(F)c2)NC(=O)CN(C)C(=O)[C@H](Cc2ccc(C)cc2)N2CC/C=C\C[C@@H](C2=O)N(C)C(=O)CN(C)C1=O	9.6			
CCCN1C(=O)[C@@H]2CCN2C(=O)[C@H](C)N(C)C(=O)[C@H]([C@@H](C)CC)NC(=O)[C@H](CC(C)C)N(C)C(=O)C[C@@H](C(=O)N(C)C)N(C)C(=O)[C@H](C2CCCC2)N(C)C(=O)C2(CCC2)NC(=O)[C@@H]2CCCN2C(=O)[C@H](CCc2ccc(C(F)(F)F)c(Cl)c2)NC(=O)CN(C)C(=O)[C@@H]1COCCC(C)C		0.6	C (A compound having a KD ratio of 0.1 or more and less than 3 is denoted as C)	C (A compound having a KD ratio of 0.1 or more and less than 3 is denoted as C)
CCO[C@@H]1C[C@H]2C(=O)NC3(CCC3)C(=O)N(C)[C@@H](C3CCCC3)C(=O)N3CCC[C@@H]3CC(=O)N(C)[C@@H](CC)C(=O)N[C@@H]([C@@H](C)CC)C(=O)N(C)CC(=O)N(C)[C@H]3C/C=C\CCN(C3=O)[C@@H](Cc3ccc(C(F)(F)F)cc3)C(=O)N(C)CC(=O)N[C@@H](CCc3ccc(C(F)(F)F)c(OC)c3)C(=O)N2C1	41.9			
CCCN1C(=O)[C@@H]2CCN2C(=O)[C@H](C)N(C)C(=O)[C@H]([C@@H](C)CC)NC(=O)[C@H](CC(C)C)N(C)C(=O)C[C@@H](C(=O)N2CCOCC2)N(C)C(=O)[C@H](C2CCCC2)N(C)C(=O)C2(CCC2)NC(=O)[C@@H]2CCCN2C(=O)[C@H](CCc2ccc(C(F)(F)F)c(Cl)c2)NC(=O)CN(C)C(=O)[C@@H]1COCCC(C)C			C (A compound having a KD ratio of 0.1 or more and less than 3 is denoted as C)	C (A compound having a KD ratio of 0.1 or more and less than 3 is denoted as C)
CCO[C@@H]1C[C@H]2C(=O)NC3(CCC3)C(=O)N(C)[C@@H](C3CCCC3)C(=O)N(C)[C@H](C(=O)N3CCOCC3)CC(=O)N(C)[C@@H](CC(C)C)C(=O)N[C@@H]([C@@H](C)CC)C(=O)N(C)CC(=O)N(C)[C@H]3CC4OC4CCN(C3=O)[C@@H](Cc3ccc(C(F)(F)F)cc3)C(=O)N(C)CC(=O)N[C@@H](CCc3ccc(C(F)(F)F)c(Cl)c3)C(=O)N2C1 (stereo partly drawn)	28.3			
CCCC[C@H]1C(=O)N[C@@H]([C@@H](C)CC)C(=O)N(C)CC(=O)N(C)[C@H]2C/C=C\CCN(C2=O)[C@@H](Cc2ccc(C(F)(F)F)cc2)C(=O)N(C)CC(=O)N[C@@H](CCc2cc(F)c(Cl)c(F)c2)C(=O)N2C[C@H](OCC)C[C@H]2C(=O)NC2(CC(C)(C)C2)C(=O)N(C)[C@@H](C2CCCC2)C(=O)N(C)[C@H](C(=O)N(C)C)CC(=O)N1C	6.2			
CC[C@H](C)[C@@H]1NC(=O)[C@H](CC)N(C)C(=O)C[C@@H](C(=O)N(C)C)N(C)C(=O)[C@H](C2CCCC2)N(C)C(=O)C2(CCC2)N(C)C(=O)[C@@H]2C[C@@H](C)CN2C(=O)[C@H](CCc2cc(F)c(C(F)(F)F)c(F)c2)NC(=O)CN(C)C(=O)[C@H](Cc2ccc(C)cc2)N2CC/C=C\C[C@@H](C2=O)N(C)C(=O)CN(C)C1=O			A (a compound having 10 or more and less than 20 is denoted as A)	B (a compound having 3 or more and less than 10 is denoted as B)
CCOC[C@H]1C(=O)N[C@@H]([C@@H](C)CC)C(=O)N(C)CC(=O)N(C)[C@H]2C/C=C\CCN(C2=O)[C@@H](Cc2ccc(C(F)(F)F)cc2)C(=O)N(C)CC(=O)N[C@@H](CCc2cc(F)c(C(F)(F)F)c(F)c2)C(=O)N2C[C@@H](C)C[C@H]2C(=O)NC2(CCC2)C(=O)N(C)[C@@H](C2CCCC2)C(=O)N(C)[C@H](C(=O)N(C)CC)CC(=O)N1C	5.1			
CCCOC[C@H]1C(=O)N[C@@H]([C@@H](C)CC)C(=O)N(C)CC(=O)N(C)[C@H]2C/C=C\CCN(C2=O)[C@@H](Cc2ccc(C(F)(F)F)cc2)C(=O)N(C)CC(=O)N[C@@H](CCc2cc(F)c(C(F)(F)F)c(F)c2)C(=O)N2C[C@@H](C)C[C@H]2C(=O)NC2(CCC2)C(=O)N(C)[C@@H](C2CCCC2)C(=O)N(C)[C@H](C(=O)N(C)CC)CC(=O)N1C	7.8			
CCO[C@@H]1C[C@H]2C(=O)NC3(CC(C)(C)C3)C(=O)N(C)[C@@H](C3CCCC3)C(=O)N(C)[C@H](C(=O)N(C)C)CC(=O)N(C)[C@@H](CC(C)C)C(=O)N[C@@H]([C@@H](C)CC)C(=O)N(C)CC(=O)N(C)[C@H]3C/C=C\CCN(C3=O)[C@@H](Cc3ccc(C(F)(F)F)cc3)C(=O)N(C)CC(=O)N[C@@H](CCc3ccc(C(F)(F)F)cc3F)C(=O)N2C1	41.7			
CCC[C@H]1C(=O)N[C@@H]([C@@H](C)CC)C(=O)N(C)CC(=O)N(C)[C@H]2C/C=C\CCN(C2=O)[C@@H](Cc2ccc(C)cc2)C(=O)N(C)CC(=O)N[C@@H](CCc2ccc(C(F)(F)F)c(OC)c2)C(=O)N2C[C@H](C)C[C@H]2C(=O)NC2(CCC2)C(=O)N(C)[C@@H](C2CCCC2)C(=O)N(C)[C@H](C(=O)N(C)CC)CC(=O)N1C	26.9	0.19	A (a compound having 10 or more and less than 20 is denoted as A)	B (a compound having 3 or more and less than 10 is denoted as B)
